# In patent US8288430B2, “Spiro(5.5)undecane derivatives” (Grunenthal GmbH, priority 2008, dated 2012):
# Amino acid sequences for entries named in this document (tags omitted). A change or cut given only in a name is not applied to a line headed by its entry.
# UniProt P35372, whole entry, looked up: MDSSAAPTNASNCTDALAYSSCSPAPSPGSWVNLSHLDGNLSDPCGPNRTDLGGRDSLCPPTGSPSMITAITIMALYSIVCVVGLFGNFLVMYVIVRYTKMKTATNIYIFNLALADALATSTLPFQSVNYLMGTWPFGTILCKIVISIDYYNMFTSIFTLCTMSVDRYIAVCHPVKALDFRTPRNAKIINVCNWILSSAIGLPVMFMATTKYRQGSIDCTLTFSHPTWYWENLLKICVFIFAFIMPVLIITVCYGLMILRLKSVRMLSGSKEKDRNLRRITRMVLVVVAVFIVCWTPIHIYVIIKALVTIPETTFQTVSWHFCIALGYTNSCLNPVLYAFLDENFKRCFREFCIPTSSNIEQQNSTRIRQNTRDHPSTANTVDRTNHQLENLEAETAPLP
# UniProt P41146: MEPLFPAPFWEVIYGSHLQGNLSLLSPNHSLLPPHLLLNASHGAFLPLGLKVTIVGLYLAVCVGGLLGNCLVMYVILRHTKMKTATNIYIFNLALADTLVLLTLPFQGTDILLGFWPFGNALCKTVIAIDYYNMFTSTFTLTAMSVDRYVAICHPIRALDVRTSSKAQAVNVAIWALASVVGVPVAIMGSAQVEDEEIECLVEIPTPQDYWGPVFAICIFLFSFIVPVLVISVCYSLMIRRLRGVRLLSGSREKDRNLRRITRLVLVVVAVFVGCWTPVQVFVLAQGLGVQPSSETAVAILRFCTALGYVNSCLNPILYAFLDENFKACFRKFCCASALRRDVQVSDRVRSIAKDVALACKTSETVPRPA
# Legend:
# human μ-opiate receptor = human μ-opiate receptor (Homo sapiens, UniProt P35372); experiment: μ-opiate receptor binding assay with [3H]-naloxone; details: for % Inhibition (μ) [1 μM]: test concentration 1 μM
# ORL 1-receptor = ORL 1-receptor (Homo sapiens, UniProt P41146); experiment: ORL 1 receptor binding assay with 3H-nociceptin/orphanin FQ; details: for % Inhibition (ORL1) [1 μM]: test concentration 1 μM
Molecule,% Inhibition (μ) [1 μM] (human μ-opiate receptor; 1 µM),% Inhibition (ORL1) [1 μM] (ORL 1-receptor; 1 µM),% Inhibition (μ) [1 μM] (human μ-opiate receptor),% Inhibition (ORL1) [1 μM] (ORL 1-receptor),Ki (human μ-opiate receptor; read-out: Ki (μ) Mean),"Ki (ORL 1-receptor; read-out: Ki (ORL1) Mean, Table 1)"
"4′-(3-fluorophenyl)-N,N-dimethyl-N-2,3,4,9-tetrahydrospiro[carbazole-1,1′-cyclohexane]-4′-amine [Ex. 11]",91%,74%,,,,
CN(C)C1(c2ccccc2)CCC2(CCCc3c2[nH]c2ccncc32)CC1 (stereo not drawn),,,67%,40%,,
"4′-(3-fluorophenyl)-N,N-dimethyl-N-2,3,4,9-tetrahydrospiro[carbazole-1,1′-cyclohexane]-4′-amine [Ex. 12]",98%,96%,,,,
C[C@@H]1Cc2c([nH]c3ccccc23)C2(CCC(c3ccccc3)(N(C)C)CC2)C1 (stereo partly drawn),,,97%,96%,,
c1ccc(C2(N3CCC3)CCC3(CCCc4c3[nH]c3ccccc43)CC2)cc1 (stereo not drawn),,,96%,96%,7 nM,11 nM
